Measured values: patent US12121505B2, “Fap-activated therapeutic agents, and uses related thereto” (BACH BIOSCIENCES, LLC, priority 2014, dated 2024)

Experiments:
FAP = biological target: T1, FAP (Homo sapiens, UniProt Q12884); assay: Rate of recombinant FAP activity on doxorubicin prodrugs; conditions: 37° C., 24 hours
T1 sequence (Q12884 1-760): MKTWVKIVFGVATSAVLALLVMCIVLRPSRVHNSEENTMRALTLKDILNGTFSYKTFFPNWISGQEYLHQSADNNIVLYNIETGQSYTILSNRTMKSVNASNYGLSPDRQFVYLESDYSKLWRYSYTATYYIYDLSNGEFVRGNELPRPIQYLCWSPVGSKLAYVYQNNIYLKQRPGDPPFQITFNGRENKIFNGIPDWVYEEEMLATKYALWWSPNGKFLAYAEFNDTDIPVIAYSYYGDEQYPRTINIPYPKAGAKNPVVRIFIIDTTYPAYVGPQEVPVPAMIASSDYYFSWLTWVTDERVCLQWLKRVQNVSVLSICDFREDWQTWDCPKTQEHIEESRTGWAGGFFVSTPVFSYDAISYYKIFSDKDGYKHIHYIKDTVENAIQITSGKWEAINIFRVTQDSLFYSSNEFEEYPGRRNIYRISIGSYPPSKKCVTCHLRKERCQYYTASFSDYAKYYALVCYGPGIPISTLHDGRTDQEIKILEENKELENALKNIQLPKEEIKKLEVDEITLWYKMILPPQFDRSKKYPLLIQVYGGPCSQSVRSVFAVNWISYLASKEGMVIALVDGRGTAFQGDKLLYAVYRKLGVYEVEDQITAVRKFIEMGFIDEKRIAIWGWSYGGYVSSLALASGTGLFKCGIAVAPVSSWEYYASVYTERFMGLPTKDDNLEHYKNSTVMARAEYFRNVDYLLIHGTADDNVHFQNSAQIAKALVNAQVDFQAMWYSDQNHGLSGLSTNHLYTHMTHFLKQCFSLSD

Row | Structure (SMILES) | mean number of days to reach 500 mm^3 tumor size (HEK-FAP tumor; Group 2, 2 mg/kg once per week iv) [days] | survival (HEK-FAP tumor; 6, 9 or 12 mg/kg once per week iv) | rate of yielding free doxorubicin (FAP)
1 | COc1cccc2c1C(=O)c1c(O)c3c(c(O)c1C2=O)C[C@@](O)(C(=O)CO)C[C@@H]3O[C@H]1C[C@H](N)[C@H](O)[C@H](C)O1 [doxorubicin, reference compound] | 41 to 43 | – | –
2 | COc1cccc2c1C(=O)c1c(O)c3c(c(O)c1C2=O)C[C@@](O)(C(=O)CO)C[C@@H]3O[C@H]1C[C@H](NC(=O)[C@@H]2CCCN2C(=O)[C@@H](C)NC(=O)c2ccncc2)[C@H](O)[C@H](C)O1 [Compound 3099DOX] | – | significantly longer survival than animals treated with either vehicle alone or doxorubicin | significantly faster than either z-GP-DOX or 3996DOX
